IC50 data for one compound are collected here from patent US20250228873A1, “C25 R AND S ISOMERS OF AMINOSTEROLS AND METHODS OF MAKING AND USING THE SAME” (Enterin, Inc., priority 2022, published 2025).

Sequences of proteins named here, by UniProt entry; tags and fusion partners are left off.
UniProt P62136, whole entry: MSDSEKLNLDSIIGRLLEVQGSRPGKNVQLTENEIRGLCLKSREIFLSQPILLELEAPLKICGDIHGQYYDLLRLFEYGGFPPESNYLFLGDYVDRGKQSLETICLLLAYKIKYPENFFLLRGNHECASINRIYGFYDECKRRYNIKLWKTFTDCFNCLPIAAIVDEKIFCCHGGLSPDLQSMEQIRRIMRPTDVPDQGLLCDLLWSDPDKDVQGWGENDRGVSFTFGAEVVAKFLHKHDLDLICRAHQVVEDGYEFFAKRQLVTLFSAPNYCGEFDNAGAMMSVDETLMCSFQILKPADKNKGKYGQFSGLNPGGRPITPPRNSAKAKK
UniProt P62140, whole entry: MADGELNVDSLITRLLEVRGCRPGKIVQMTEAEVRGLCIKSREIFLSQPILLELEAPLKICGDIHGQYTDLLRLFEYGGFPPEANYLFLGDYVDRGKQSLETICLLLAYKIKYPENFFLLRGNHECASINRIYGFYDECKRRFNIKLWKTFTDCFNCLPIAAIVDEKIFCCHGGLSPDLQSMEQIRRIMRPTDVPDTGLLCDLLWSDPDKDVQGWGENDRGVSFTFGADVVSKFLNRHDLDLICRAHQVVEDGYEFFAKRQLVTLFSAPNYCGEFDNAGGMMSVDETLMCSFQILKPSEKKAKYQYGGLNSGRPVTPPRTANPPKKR

Common to all, as to assay: Phosphatase panel, DiFMUP fluorescence assay
What all share (format): biochemical

Assay [1] deals with T1, DUSP22/MKPX (Homo sapiens, UniProt Q9NRW4).
T1 construct: purchased Recation Biology Inc
T1 sequence (Q9NRW4 1-184): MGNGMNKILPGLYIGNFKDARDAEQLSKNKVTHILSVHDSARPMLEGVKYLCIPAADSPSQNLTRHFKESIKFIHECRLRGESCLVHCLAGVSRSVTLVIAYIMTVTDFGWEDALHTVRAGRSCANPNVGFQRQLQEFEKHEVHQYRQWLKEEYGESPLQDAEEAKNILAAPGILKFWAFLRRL

The target of assay [2] is T2, PP1A (Homo sapiens, UniProt P62136).
T2 construct: purchased Recation Biology Inc

In assay [3] the target is T3, PP1B (Homo sapiens, UniProt P62140).
T3 construct: purchased Recation Biology Inc
The note with it: for pIC50: inhibitory activity PP1B.

The target in assay [4] is T4, PTPN7/LC-PTP (Homo sapiens, UniProt P35236).
T4 construct: purchased Recation Biology Inc
T4 sequence (P35236 1-360): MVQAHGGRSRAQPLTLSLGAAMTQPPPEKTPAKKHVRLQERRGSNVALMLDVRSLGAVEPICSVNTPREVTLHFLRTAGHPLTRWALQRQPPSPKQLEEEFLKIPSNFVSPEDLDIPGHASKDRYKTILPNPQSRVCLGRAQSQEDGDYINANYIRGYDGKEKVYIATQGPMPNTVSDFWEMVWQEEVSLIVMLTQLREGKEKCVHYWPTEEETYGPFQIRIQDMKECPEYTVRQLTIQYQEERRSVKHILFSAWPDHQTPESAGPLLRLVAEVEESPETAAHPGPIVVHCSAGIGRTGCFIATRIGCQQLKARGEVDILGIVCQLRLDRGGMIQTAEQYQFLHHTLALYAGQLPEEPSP

SMILES strings stand for the structures. pIC50: −log10 of the molar value. Read-outs that look alike come from different tables or passages of the source.

Turning to `CCc1oc2cc(S(=O)(=O)Nc3ccc(S(=O)(=O)Nc4nccs4)cc3)ccc2c1C(=O)c1cc(Br)c(O)c(Br)c1` [PTP1B Inhibitor, 3-(3,5-Dibromo-4-hydroxy-benzoyl)-2-ethyl-benzofuran-6-sulfonicacid-(4-(thiazol-2-ylsulfamyl)-phenyl)-amide, reference compound], the pIC50 was 5.02 in assay [1]; 5.14 in assay [1] (Table 19A, read-out: inhibitory activity DUSP22/MKPXPT); 5.16 in assay [2]; 5.19 in assay [2] (Table 19A, read-out: inhibitory activity PP1A); 5.22 in assay [3] (Table 18A); 5.30 in assay [3] (Table 19A). The pIC50 in assay [4] was 5.16; in assay [4] (Table 18B, read-out: inhibitory activity PTPN7/LC-PTP), 5.06. For the same compound, the IC50 in assay [1] (Table 5B, read-out: Compound IC50 (M) DUSP22/MKPX) was 1.45e-05 M; in assay [2] (Table 5B, read-out: Compound IC50 (M) PP1A) it was 2.15e-05 M; in assay [3] (Table 5B, read-out: Compound IC50 (M) PP1B) it was 3.46e-05 M; in assay [4] (Table 5C, read-out: Compound IC50 (M) PTPN7/LC-PTP) it was 1.28e-05 M.
